Literature values, collected in paper PMC9977316, “The kidney drug transporter OAT1 regulates gut microbiome–dependent host metabolism” (JCI Insight, 2023).

Target: T1, OAT1 (Homo sapiens, UniProt Q4U2R8)
T1 sequence (Q4U2R8 1-563): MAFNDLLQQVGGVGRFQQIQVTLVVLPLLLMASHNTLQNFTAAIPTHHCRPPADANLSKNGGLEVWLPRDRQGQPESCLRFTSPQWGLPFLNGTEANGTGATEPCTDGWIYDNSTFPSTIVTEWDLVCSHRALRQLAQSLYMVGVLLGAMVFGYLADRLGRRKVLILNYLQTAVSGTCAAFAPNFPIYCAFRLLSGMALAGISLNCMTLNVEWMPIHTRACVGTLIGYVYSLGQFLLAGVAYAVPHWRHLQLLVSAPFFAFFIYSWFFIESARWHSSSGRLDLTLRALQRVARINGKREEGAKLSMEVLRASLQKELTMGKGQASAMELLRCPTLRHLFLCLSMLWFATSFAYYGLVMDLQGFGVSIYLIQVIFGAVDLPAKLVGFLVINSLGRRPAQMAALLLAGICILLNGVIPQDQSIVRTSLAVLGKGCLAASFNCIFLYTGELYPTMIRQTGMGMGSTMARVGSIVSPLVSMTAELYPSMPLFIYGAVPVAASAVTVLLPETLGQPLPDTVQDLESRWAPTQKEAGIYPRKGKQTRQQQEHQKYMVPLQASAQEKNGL
Parameters: The full-length protein was expressed as GFP fusion in HEK293 cells to check for protein expression; GFP; FLAG (inferred from capture on anti-flag antibody beads); made in house; host or cells: HEK293 cells, third-generation lentiviral vector
Conditions: cited from earlier work

Substance: Indoleacetate
- In vitro cell–based transport assay: × (17)
